SMILES strings stand for the structures.

Assay [1] addresses T1, Neutrophil elastase (Homo sapiens) (UniProt P08246).
T1 sequence (whole entry): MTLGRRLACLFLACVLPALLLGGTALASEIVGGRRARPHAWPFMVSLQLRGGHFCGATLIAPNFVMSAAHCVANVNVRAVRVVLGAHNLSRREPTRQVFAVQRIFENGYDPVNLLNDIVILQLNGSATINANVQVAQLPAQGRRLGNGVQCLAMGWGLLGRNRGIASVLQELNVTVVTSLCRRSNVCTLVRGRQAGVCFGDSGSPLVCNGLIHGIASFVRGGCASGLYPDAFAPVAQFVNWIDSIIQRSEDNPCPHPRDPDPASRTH

In assay [2] the target is T1, Neutrophil elastase (Homo sapiens). In words: Second order rate constant for enzyme-inhibitor complex Human Leukocyte Elastase inhibition was determined. In outline:
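Progress-curve assay at 25 °C with HLE purified from human leukocytes, in 50 mM sodium phosphate, 500 mM NaCl, pH 7.8. Substrate was MeOSuc-Ala-Ala-Pro-Val-pNA (200 μM final, 405 nm, 30–75 min) or, for a few inhibitors, Suc-Ala-Ala-Pro-Val-AMC (125 μM final, ex 340/em 460 nm, 4–5 min). At least five inhibitor concentrations were used, or 10 μM alone where solubility limited. Curves were fitted by slow-binding kinetics (k_obs = k_on'[I] + k_off).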

Consider `CCCOc1nc2sc3c(c2c(=O)o1)CCCC3`, for which the koff in assay [1] came to 1.42. Also, the kon (10e3* M-1 s-1) in assay [2] was determined as 99.3.
`CCCOc1nc2sc(C)c(C)c2c(=O)o1` gave a koff in assay [1] of 0.628. Besides, the kon (10e3* M-1 s-1) in assay [2] was found to be 15.6.
As for `Cc1sc2nc(SCc3ccccc3)oc(=O)c2c1C`, in assay [1], the koff turned out to be 3.58. The compound also yielded a kon (10e3* M-1 s-1) in assay [2] of 3.54.
The compound `CCSc1nc2sc(C)c(C)c2c(=O)o1` returned a koff in assay [1] of 35.8. The compound further displayed a kon (10e3* M-1 s-1) in assay [2] of 1310.
Turning to `CC(C)Nc1nc2sc3c(c2c(=O)o1)CCCC3`, the koff in assay [1] is 2.01. This compound came in with a kon (10e3* M-1 s-1) in assay [2] of 1.39.
`CCOc1nc2scc(C(C)C)c2c(=O)o1` registered a koff in assay [1] of 4.29. The kon (10e3* M-1 s-1) in assay [2] stood at 76.4.
For `Cc1sc2nc(OCC(C)C)oc(=O)c2c1C`, the koff in assay [1] was found to be 0.292. In assay [2], this compound had a kon (10e3* M-1 s-1) of 0.219.
In assay [1], `CSc1nc2sc(C)c(C)c2c(=O)o1` returned a koff of 5.67. In assay [2], this compound showed a kon (10e3* M-1 s-1) of 16.2.
For `CCOc1nc2sc3c(c2c(=O)o1)CCCC3`, in that order: 1.27 and 93.6.
With `CC(C)Nc1nc2sccc2c(=O)o1`, the koff in assay [1] was found to be 1.34. The compound further came in with a kon (10e3* M-1 s-1) in assay [2] of 3.2.
The like results for `CCN(CC)c1nc2sc3c(c2c(=O)o1)CCCC3` were, in that order, 0.612 and 3.75.
For `CC(C)COc1nc2sc3c(c2c(=O)o1)CCCC3`, in that order: 0.515 and 1.01.
For `CCOc1nc2sc(C)c(C)c2c(=O)o1`, in that order: 1.3 and 12.2.
`COC(=O)CSc1nc2sc3c(c2c(=O)o1)CCCC3`: the koff in assay [1] was 0.292. Besides, the kon (10e3* M-1 s-1) in assay [2] stood at 1.63.
For `O=c1oc(SCc2ccccc2)nc2sc3c(c12)CCCC3`, in that order: 0.692 and 0.239.
